Values quoted from earlier work as cited in patent US20120239131A1, “METHODS AND APPARATUS FOR TREATMENT OF ANEURYSMAL TISSUE” (Medtronic Vascular, Inc., priority 2011, published 2012).

Conditions: in vivo; cited from earlier work

In the case of NCCCC[C@H](N[C@@H](CCc1ccccc1)C(=O)O)C(=O)N1CCC[C@H]1C(=O)O [Lisinopril, lisinopril], the Route of clearance/elimination is given as “cleared as the intact compound in the kidney”.
